Experimental data from US7582611B2, “Motilide compounds” (Pfizer Inc., priority 2005, dated 2009).

Sequences of proteins named here, by UniProt entry; tags and fusion partners are left off. Residues count along the entry.
UniProt G1T803, 1-400: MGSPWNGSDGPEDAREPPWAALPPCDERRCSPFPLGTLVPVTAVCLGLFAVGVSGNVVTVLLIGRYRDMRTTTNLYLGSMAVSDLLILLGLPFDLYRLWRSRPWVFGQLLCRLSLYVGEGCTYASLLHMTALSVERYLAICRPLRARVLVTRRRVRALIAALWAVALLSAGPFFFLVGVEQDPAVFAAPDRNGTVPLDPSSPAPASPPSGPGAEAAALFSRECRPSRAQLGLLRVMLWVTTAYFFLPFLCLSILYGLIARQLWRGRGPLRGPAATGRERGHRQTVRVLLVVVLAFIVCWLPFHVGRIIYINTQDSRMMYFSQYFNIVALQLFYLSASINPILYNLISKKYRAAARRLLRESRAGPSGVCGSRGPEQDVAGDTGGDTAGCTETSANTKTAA

Target: Motilin Receptor (Oryctolagus cuniculus, UniProt G1T803)
Assay: Tissue based assay for motilin agonist potency (rabbit duodenum contractility)
Settings: read-out: Motilin Receptor Agonist Activity (EC50); rabbit duodenum strips, contraction normalized to 1 μM carbachol

CC[C@H]1OC(=O)[C@H](C)[C@@H](O[C@H]2C[C@@](C)(OC)C[C@H](C)O2)[C@H](C)[C@@H](O[C@@H]2O[C@H](C)C[C@H](N(C)C(C)C)[C@H]2O)[C@](C)(O)C[C@@H](C)[C@H](OCC(N)=O)[C@H](C)[C@@H](O)[C@]1(C)O
EC50: 36 nM
